{
  "sequences": {"note": "Sequences of proteins named here, by UniProt entry; tags and fusion partners are left off. A change or cut given only in a name is not applied to a line headed by its entry.", "UniProt P11387": "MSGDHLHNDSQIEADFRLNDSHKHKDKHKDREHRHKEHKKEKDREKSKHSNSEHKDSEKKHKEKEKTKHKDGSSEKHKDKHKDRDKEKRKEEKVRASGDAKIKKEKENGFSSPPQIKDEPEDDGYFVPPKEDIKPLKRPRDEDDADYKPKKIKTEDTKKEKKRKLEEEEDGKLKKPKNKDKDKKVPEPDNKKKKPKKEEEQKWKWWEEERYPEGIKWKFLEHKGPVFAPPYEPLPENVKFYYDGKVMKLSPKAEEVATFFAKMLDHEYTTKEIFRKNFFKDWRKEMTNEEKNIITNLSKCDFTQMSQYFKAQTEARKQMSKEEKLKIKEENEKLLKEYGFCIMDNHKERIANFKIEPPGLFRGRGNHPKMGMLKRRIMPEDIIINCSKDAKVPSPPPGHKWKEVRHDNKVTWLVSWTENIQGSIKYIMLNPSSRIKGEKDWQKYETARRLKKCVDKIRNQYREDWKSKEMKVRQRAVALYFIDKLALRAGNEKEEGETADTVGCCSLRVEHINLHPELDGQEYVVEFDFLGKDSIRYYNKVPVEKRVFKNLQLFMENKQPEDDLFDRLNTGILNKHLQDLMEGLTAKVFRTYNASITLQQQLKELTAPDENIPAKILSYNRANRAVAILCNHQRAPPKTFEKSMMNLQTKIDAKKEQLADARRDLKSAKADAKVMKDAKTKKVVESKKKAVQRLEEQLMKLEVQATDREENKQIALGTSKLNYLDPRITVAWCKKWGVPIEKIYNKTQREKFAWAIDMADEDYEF"},
  "source": "patent US20080020973A1",
  "about": "(priority 2004, published 2008)",
  "molecular_target": "human topoisomerase type IB (hTopo) (Homo sapiens, UniProt P11387)",
  "assay": "Plasmid supercoil relaxation (SC release) assay, hTopo",
  "type": "biochemical",
  "conditions": "@ 20 μM",
  "data": [
    {"smiles": "O=[As](O)(O)c1ccc(-c2cccc([As](=O)(O)O)c2)cc1", "values": [
      {"measurement": "% Inhibition (plasmid SC release assay)", "value": 50, "unit": "% @ 20 μM"}
    ]}
  ]
}
